Measurements reported in ChEMBL document CHEMBL5257114, “Discovery of imidazo[1,2-b]pyridazine macrocyclic derivatives as novel ALK inhibitors capable of combating multiple resistant mutants” (Bioorg Med Chem Lett, 2023).

Protein sequences, listed by entry. Tags and fused reporters are not part of them. Lines headed by an entry give the natural chain unless they say otherwise; changes in a name come on top.
UniProt P35968, whole entry: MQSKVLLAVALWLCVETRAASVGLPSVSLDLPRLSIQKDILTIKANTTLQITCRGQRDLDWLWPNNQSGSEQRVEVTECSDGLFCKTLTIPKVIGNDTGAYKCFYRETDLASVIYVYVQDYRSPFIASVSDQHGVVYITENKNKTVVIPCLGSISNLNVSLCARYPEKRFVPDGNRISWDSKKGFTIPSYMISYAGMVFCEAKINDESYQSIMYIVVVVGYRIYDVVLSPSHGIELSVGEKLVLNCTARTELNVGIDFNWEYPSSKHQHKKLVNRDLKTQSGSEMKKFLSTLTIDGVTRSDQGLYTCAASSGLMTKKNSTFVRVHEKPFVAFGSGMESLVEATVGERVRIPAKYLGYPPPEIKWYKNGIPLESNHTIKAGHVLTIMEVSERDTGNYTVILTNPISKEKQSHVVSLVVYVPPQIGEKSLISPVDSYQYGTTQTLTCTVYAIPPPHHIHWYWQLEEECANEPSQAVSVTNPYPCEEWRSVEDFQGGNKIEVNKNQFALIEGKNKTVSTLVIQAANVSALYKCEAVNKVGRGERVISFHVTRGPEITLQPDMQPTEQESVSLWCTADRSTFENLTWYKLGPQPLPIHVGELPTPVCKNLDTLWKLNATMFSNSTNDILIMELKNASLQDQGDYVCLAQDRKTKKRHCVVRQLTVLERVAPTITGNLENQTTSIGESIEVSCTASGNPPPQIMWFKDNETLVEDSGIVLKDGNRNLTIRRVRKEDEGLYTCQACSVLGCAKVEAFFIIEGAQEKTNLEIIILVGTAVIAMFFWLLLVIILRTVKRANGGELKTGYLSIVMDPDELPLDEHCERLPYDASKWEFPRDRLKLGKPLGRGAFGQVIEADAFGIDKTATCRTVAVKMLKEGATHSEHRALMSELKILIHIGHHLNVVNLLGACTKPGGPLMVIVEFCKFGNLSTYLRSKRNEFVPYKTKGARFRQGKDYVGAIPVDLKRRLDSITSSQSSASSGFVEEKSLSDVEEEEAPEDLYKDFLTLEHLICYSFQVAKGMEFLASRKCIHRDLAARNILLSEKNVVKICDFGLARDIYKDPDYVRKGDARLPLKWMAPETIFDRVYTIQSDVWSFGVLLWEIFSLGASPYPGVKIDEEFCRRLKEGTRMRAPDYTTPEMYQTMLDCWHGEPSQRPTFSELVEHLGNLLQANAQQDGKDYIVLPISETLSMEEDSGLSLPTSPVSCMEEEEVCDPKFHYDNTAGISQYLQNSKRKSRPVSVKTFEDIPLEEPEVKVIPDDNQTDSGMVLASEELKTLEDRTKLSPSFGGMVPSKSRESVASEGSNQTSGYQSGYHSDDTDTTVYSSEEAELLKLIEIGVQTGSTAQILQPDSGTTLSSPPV
UniProt P07332: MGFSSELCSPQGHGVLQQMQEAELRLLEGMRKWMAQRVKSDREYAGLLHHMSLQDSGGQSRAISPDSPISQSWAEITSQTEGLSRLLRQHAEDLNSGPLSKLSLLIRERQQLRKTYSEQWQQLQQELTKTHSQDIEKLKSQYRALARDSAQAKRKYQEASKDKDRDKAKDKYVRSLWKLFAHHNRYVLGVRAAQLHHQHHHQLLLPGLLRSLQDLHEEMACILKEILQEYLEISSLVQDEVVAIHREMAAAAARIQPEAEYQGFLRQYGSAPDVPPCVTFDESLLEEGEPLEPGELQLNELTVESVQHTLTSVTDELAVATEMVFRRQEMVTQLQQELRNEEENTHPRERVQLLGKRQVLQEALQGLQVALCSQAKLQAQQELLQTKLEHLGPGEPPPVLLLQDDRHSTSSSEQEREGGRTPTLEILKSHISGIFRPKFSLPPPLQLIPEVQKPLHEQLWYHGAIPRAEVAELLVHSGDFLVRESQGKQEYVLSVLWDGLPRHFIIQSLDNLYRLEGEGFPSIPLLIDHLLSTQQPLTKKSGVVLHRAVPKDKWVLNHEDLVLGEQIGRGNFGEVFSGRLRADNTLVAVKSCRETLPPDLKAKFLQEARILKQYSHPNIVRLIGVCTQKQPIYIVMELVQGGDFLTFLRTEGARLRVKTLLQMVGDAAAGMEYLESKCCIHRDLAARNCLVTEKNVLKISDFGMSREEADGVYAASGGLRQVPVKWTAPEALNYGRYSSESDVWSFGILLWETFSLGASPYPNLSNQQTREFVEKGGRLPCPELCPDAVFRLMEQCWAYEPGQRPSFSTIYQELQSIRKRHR
UniProt P36888, whole entry: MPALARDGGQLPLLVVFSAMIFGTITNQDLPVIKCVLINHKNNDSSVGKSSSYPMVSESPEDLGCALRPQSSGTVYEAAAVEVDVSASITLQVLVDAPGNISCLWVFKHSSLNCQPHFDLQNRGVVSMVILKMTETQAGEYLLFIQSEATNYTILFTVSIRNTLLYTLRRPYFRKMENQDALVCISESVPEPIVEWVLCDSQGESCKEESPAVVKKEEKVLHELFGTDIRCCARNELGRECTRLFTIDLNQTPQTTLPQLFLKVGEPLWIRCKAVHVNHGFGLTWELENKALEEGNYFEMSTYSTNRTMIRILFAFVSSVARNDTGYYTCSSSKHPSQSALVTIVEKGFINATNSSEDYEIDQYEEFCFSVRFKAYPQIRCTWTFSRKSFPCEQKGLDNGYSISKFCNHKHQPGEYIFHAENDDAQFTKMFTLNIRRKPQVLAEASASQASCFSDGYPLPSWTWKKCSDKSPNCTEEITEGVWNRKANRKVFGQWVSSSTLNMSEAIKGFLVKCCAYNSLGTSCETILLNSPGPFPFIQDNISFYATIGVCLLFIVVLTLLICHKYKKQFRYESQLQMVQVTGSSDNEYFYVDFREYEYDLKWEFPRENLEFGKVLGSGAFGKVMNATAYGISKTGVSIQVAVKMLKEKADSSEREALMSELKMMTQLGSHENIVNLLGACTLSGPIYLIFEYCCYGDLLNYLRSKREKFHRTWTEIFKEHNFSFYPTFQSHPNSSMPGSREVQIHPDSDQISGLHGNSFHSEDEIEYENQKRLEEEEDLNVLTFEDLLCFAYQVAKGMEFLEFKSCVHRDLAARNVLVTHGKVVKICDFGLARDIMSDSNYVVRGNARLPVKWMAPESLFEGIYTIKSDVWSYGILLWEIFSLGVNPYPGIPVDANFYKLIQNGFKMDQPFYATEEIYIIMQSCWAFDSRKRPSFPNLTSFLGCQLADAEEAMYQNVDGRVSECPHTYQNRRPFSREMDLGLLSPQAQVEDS
UniProt Q08881: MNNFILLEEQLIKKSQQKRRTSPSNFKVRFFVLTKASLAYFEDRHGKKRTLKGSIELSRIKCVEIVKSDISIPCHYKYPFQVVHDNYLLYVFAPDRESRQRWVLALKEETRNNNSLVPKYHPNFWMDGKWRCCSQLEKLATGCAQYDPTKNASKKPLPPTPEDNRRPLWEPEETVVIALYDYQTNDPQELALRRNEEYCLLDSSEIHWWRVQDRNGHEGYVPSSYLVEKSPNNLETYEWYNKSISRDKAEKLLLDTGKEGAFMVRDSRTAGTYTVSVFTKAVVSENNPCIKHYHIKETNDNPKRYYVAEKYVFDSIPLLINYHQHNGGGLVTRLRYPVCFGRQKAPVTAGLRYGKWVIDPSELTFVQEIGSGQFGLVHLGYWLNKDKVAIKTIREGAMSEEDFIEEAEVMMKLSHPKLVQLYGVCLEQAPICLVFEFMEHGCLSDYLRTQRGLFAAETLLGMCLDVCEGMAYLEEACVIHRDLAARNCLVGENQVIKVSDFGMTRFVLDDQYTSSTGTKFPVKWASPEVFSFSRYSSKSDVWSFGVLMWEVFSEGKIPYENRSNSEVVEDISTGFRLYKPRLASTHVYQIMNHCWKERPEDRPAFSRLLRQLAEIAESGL
UniProt P22607, whole entry, looked up: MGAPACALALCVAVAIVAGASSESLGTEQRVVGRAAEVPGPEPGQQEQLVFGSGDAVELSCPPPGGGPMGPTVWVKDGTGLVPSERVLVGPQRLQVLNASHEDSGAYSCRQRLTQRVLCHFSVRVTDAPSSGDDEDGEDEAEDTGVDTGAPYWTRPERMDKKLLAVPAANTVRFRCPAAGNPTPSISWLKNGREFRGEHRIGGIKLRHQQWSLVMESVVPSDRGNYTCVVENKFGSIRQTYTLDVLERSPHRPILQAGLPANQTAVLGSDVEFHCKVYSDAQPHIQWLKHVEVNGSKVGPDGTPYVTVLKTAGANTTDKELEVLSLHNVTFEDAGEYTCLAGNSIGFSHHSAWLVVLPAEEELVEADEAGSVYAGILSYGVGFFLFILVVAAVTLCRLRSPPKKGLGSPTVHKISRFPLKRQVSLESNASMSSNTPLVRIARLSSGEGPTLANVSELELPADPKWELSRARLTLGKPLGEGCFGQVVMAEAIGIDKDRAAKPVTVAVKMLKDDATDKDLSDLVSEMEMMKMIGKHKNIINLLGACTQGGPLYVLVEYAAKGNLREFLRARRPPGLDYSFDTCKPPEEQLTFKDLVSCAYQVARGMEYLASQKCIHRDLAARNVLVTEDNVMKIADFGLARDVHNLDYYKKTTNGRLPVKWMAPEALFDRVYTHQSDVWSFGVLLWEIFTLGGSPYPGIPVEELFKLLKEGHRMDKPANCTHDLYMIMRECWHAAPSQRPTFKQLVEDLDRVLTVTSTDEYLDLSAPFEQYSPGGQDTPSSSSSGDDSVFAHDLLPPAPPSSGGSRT
UniProt P17948, whole entry: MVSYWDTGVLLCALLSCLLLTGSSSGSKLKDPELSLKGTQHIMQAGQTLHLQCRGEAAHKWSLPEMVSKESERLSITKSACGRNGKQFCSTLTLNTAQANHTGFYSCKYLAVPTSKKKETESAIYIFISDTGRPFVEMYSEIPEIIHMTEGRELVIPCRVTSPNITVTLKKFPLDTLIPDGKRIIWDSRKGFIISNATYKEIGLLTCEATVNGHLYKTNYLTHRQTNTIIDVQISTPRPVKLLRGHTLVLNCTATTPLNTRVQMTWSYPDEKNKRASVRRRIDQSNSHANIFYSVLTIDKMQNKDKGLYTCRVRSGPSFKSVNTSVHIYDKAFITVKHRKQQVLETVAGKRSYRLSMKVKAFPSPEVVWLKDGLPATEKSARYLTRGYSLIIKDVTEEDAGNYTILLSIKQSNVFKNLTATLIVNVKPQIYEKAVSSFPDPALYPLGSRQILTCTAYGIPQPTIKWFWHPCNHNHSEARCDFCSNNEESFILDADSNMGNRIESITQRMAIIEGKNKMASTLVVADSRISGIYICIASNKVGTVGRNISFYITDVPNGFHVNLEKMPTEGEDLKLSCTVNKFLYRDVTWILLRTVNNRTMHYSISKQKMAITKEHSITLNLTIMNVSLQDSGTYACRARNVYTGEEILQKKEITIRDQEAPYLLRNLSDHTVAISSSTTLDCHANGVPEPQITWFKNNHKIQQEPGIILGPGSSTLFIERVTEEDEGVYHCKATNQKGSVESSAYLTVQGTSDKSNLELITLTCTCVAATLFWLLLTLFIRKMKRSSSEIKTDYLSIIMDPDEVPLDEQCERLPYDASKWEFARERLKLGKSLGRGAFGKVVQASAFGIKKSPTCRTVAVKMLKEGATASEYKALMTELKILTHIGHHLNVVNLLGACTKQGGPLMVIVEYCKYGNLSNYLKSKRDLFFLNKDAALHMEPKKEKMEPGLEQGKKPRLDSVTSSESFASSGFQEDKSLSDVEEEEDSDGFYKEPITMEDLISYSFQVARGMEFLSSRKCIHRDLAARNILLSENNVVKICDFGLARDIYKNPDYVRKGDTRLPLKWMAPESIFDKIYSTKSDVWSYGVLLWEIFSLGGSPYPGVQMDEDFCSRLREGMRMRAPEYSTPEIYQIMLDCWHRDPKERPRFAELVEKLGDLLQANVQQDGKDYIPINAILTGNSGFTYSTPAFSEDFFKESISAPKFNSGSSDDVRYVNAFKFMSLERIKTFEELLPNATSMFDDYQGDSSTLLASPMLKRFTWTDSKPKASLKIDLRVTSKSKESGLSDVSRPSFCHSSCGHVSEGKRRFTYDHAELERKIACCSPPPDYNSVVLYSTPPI
UniProt P43403: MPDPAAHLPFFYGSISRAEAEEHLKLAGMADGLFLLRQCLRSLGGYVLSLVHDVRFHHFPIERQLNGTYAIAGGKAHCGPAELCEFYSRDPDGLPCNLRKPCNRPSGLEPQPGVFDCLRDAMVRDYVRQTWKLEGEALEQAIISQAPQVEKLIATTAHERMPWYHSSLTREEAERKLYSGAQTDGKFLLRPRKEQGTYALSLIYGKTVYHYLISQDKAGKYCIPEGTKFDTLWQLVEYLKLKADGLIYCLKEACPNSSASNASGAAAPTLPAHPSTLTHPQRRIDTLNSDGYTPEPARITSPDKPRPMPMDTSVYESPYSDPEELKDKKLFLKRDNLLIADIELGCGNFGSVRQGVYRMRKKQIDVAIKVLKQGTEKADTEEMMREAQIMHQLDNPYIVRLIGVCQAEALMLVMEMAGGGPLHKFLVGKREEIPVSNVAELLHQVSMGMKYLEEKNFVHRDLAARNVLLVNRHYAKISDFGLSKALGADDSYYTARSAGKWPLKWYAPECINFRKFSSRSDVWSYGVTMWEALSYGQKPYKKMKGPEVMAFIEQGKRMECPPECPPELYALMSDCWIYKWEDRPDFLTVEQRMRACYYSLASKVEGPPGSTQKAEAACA

Columns and labels:
[1] = target: Vascular endothelial growth factor receptor 2 (Homo sapiens) (UniProt P35968); assay: Inhibition of KDR (unknown origin) at 1 uM relative to control
[2] = target: Focal adhesion kinase 1 (Homo sapiens) (UniProt Q05397); assay: Inhibition of FAK (unknown origin) at 1 uM relative to control
[3] = target: Proto-oncogene tyrosine-protein kinase ROS (Homo sapiens) (UniProt P08922); assay: Inhibition of ROS (unknown origin) at 1 uM relative to control
[4] = target: Tyrosine-protein kinase JAK2 (Homo sapiens) (UniProt O60674); assay: Inhibition of JAK2 (unknown origin) at 1 uM relative to control
[5] = target: Tyrosine-protein kinase Fgr (Homo sapiens) (UniProt P09769); assay: Inhibition of FGR (unknown origin) at 1 uM relative to control
[6] = target: Proto-oncogene tyrosine-protein kinase Src (Homo sapiens) (UniProt P12931); assay: Inhibition of SRC (unknown origin) at 1 uM relative to control
[7] = target: Tyrosine-protein kinase ABL2 (Homo sapiens) (UniProt P42684); assay: Inhibition of ABL2 (unknown origin) at 1 uM relative to control
[8] = target: Ephrin type-A receptor 3 (Homo sapiens) (UniProt P29320); assay: Inhibition of EPHA3 (unknown origin) at 1 uM relative to control
[9] = target: Tyrosine-protein kinase receptor UFO (Homo sapiens) (UniProt P30530); assay: Inhibition of AXL (unknown origin) at 1 uM relative to control
[10] = target: Tyrosine-protein kinase JAK1 (Homo sapiens) (UniProt P23458); assay: Inhibition of JAK1 (unknown origin) at 1 uM relative to control
[11] = target: Tyrosine-protein kinase BTK (Homo sapiens) (UniProt Q06187); assay: Inhibition of BTK (unknown origin) at 1 uM relative to control
[12] = target: Macrophage colony-stimulating factor 1 receptor (Homo sapiens) (UniProt P07333); assay: Inhibition of CSF1R (unknown origin) at 1 uM relative to control
[13] = target: Tyrosine-protein kinase Fes/Fps (Homo sapiens) (UniProt P07332); assay: Inhibition of FES (unknown origin) at 1 uM relative to control
[14] = target: Proto-oncogene tyrosine-protein kinase receptor Ret (Homo sapiens) (UniProt P07949); assay: Inhibition of RET (unknown origin) at 1 uM relative to control
[15] = target: Ephrin type-A receptor 7 (Homo sapiens) (UniProt Q15375); assay: Inhibition of EPHA7 (unknown origin) at 1 uM relative to control
[16] = target: Tyrosine-protein kinase Mer (Homo sapiens) (UniProt Q12866); assay: Inhibition of MER (unknown origin) at 1 uM relative to control
[17] = target: Tyrosine-protein kinase JAK3 (Homo sapiens) (UniProt P52333); assay: Inhibition of JAK3 (unknown origin) at 1 uM relative to control
[18] = target: Fibroblast growth factor receptor 2 (Homo sapiens) (UniProt P21802); assay: Inhibition of FGFR2 (unknown origin) at 1 uM relative to control
[19] = target: Tyrosine-protein kinase Yes (Homo sapiens) (UniProt P07947); assay: Inhibition of YES (unknown origin) at 1 uM relative to control
[20] = target: Angiopoietin-1 receptor (Homo sapiens) (UniProt Q02763); assay: Inhibition of TIE2 (unknown origin) at 1 uM relative to control
[21] = target: Receptor-type tyrosine-protein kinase FLT3 (Homo sapiens) (UniProt P36888); assay: Inhibition of FLT3 (unknown origin) at 1 uM relative to control
[22] = target: Non-receptor tyrosine-protein kinase TYK2 (Homo sapiens) (UniProt P29597); assay: Inhibition of TYK2 (unknown origin) at 1 uM relative to control
[23] = target: Platelet-derived growth factor receptor alpha (Homo sapiens) (UniProt P16234); assay: Inhibition of PDGFRalpha (unknown origin) at 1 uM relative to control
[24] = target: Tyrosine-protein kinase ITK/TSK (Homo sapiens) (UniProt Q08881); assay: Inhibition of ITK (unknown origin) at 1 uM relative to control
[25] = target: Fibroblast growth factor receptor 4 (Homo sapiens) (UniProt P22455); assay: Inhibition of FGFR4 (unknown origin) at 1 uM relative to control
[26] = target: Epidermal growth factor receptor (Homo sapiens) (UniProt P00533); assay: Inhibition of EGFR (unknown origin) at 1 uM relative to control
[27] = target: Platelet-derived growth factor receptor beta (Homo sapiens) (UniProt P09619); assay: Inhibition of PDGFRbeta (unknown origin) at 1 uM relative to control
[28] = target: Tyrosine-protein kinase receptor TYRO3 (Homo sapiens) (UniProt Q06418); assay: Inhibition of TYRO3(unknown origin) at 1 uM relative to control
[29] = target: Tyrosine-protein kinase CSK (Homo sapiens) (UniProt P41240); assay: Inhibition of CSK (unknown origin) at 1 uM relative to control
[30] = target: Hepatocyte growth factor receptor (Homo sapiens) (UniProt P08581); assay: Inhibition of MET (unknown origin) at 1 uM relative to control
[31] = target: Fibroblast growth factor receptor 3 (Homo sapiens) (UniProt P22607); assay: Inhibition of FGFR3 (unknown origin) at 1 uM relative to control
[32] = target: Receptor tyrosine-protein kinase erbB-2 (Homo sapiens) (UniProt P04626); assay: Inhibition of HER2 (unknown origin) at 1 uM relative to control
[33] = target: Vascular endothelial growth factor receptor 1 (Homo sapiens) (UniProt P17948); assay: Inhibition of FLT1 (unknown origin) at 1 uM relative to control
[34] = target: Mast/stem cell growth factor receptor Kit (Homo sapiens) (UniProt P10721); assay: Inhibition of KIT (unknown origin) at 1 uM relative to control
[35] = target: Vascular endothelial growth factor receptor 3 (Homo sapiens) (UniProt P35916); assay: Inhibition of FLT4 (unknown origin) at 1 uM relative to control
[36] = target: Macrophage-stimulating protein receptor (Homo sapiens) (UniProt Q04912); assay: Inhibition of RON (unknown origin) at 1 uM relative to control
[37] = target: Tyrosine-protein kinase SYK (Homo sapiens) (UniProt P43405); assay: Inhibition of SYK (unknown origin) at 1 uM relative to control
[38] = target: Tyrosine-protein kinase ZAP-70 (Homo sapiens) (UniProt P43403); assay: Inhibition of ZAP70 (unknown origin) at 1 uM relative to control
[39] = target: Receptor tyrosine-protein kinase erbB-4 (Homo sapiens) (UniProt Q15303); assay: Inhibition of HER4 (unknown origin) at 1 uM relative to control

inhibition [1]: 5.15%
inhibition [2]: 101%
inhibition [3]: 100%
inhibition [4]: 99.6%
inhibition [5]: 95.3%
inhibition [6]: 94.1%
inhibition [7]: 91.9%
inhibition [8]: 90.2%
inhibition [9]: 86.7%
inhibition [10]: 86.2%
inhibition [11]: 85.7%
inhibition [12]: 83.3%
inhibition [13]: 83.1%
inhibition [14]: 82.3%
inhibition [15]: 81.7%
inhibition [16]: 79.8%
inhibition [17]: 79.6%
inhibition [18]: 76.7%
inhibition [19]: 69.4%
inhibition [20]: 60.1%
inhibition [21]: 50.8%
inhibition [22]: 43.3%
inhibition [23]: 37.6%
inhibition [24]: 28.1%
inhibition [25]: 27.5%
inhibition [26]: 24.7%
inhibition [27]: 24.2%
inhibition [28]: 23.7%
inhibition [29]: 18.4%
inhibition [30]: 14.2%
inhibition [31]: 11.2%
inhibition [32]: 10.4%
inhibition [33]: 9.56%
inhibition [34]: 9.04%
inhibition [35]: 3.54%
inhibition [36]: 2.5%
inhibition [37]: -0.11%
inhibition [38]: -0.88%
inhibition [39]: -3.6%
SMILES: CC[C@H]1Nc2ccc3ncc(n3n2)C(=O)NC2(CC2)COc2ccc(F)cc21
